By UniProt entry, the sequences of proteins in these tests, tags left out. Residues count along the entry.
UniProt P08709, 61-212 limits assumed: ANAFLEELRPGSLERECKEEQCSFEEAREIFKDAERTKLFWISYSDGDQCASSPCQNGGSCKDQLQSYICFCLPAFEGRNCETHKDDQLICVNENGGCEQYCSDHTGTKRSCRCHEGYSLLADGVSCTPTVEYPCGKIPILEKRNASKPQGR
UniProt P08709, 213-466 limits assumed: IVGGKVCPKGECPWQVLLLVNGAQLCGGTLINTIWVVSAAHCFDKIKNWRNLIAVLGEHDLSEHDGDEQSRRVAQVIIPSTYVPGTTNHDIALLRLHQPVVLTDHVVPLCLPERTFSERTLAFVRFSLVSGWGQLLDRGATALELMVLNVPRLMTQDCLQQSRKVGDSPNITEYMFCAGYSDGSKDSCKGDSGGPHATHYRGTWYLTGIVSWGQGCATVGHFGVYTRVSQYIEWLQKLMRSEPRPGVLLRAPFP
UniProt P00761, 9-231: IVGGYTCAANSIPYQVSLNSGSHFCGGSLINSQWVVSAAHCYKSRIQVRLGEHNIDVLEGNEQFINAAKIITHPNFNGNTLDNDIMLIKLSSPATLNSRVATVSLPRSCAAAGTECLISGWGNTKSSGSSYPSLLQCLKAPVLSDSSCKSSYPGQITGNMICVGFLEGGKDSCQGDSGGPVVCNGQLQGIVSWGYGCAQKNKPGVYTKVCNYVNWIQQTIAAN

In patent US7119094B1, “Substituted polycyclic aryl and heteroarpyl pyrazinones useful for selective inhibition of the coagulation cascade” (Warner-Lambert Company, priority 2000, dated 2006):

Experiments:
[1] = molecular target: recombinant soluble tissue factor and recombinant human factor VIIa (TF-VIIa) (Homo sapiens, UniProt P08709); test: TF-VIIa Assay
[2] = molecular target: Trypsin (type 1× from porcine pancreas) (Sus scrofa, UniProt P00761); test: Trypsin Assay

Compound | % Inhibition TF-VIIa (100 νM) [1] | % Inhibition Trpysin II (100 νM) [2]
O=C(Cn1c(-c2ccc(-c3ccccc3)cc2)c(Cl)nc(NCCc2cccc(Cl)c2)c1=O)NCCc1ccncc1 [Example E-0051] | 0% | 0%
O=C(Cn1c(-c2ccc(-c3ccccc3)cc2)c(Cl)nc(NCCc2ccccc2)c1=O)NCCc1cccnc1 [Example E-0113] | 14% | 11%
